# Reference: PubChem BioAssay (Tox21)
# By UniProt entry, the sequences of proteins in these tests, tags left out. Where a name states a change or a piece, a line headed by the entry shows the natural chain unless it says otherwise.
# UniProt P11473: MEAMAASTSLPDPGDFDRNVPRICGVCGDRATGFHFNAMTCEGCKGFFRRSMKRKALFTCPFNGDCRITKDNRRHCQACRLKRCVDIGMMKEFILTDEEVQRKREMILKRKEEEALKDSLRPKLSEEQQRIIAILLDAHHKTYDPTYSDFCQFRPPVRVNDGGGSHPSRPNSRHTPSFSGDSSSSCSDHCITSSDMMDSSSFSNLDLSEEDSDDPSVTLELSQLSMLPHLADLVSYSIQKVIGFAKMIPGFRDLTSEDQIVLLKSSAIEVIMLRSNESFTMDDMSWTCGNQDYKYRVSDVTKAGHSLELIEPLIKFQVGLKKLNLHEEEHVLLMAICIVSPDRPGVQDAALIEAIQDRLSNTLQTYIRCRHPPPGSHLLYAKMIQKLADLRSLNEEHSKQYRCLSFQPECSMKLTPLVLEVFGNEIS
# “And” between values parts separate entries of the source, which are not always exact repeats. Identical values can stand only once. This is a selection; strong and weak results do not stand in their true shares. Inconclusive results are not listed. The source made the active and inactive calls. The call rests on the fitted dose curve.
# Target: Vitamin D3 receptor (Homo sapiens) (UniProt P11473)
# Experiment: qHTS assay to identify small molecule agonists of the vitamin D receptor (VDR) signaling pathway (AID 743222)
# Conditions: HEK293T VDR-UAS-bla, beta-lactamase FRET ratio, 16 h; at 63.5 µM (top of the series) unless noted
# Excerpt: National Center for Advancing Translational Sciences [NCATS]
# NIH Chemical Genomics Center [NCGC]
# U.S. Environmental Protection Agency [EPA]
# National Institutes of Environmental Health Sciences [NIEHS]
# National Toxicology Program [NTP]
# U.S. Food and Drug Administration [FDA]
# The vitamin D receptor (VDR), a member of nuclear hormone receptor superfamily, plays a critical role in calcium homeostasis and bone metabolism. It is also involved in cell differentiation and growth, and thrombogenicity.
# Tox21 Assay Protocol Summary:
# VDR-bla cells were dispensed at 2,000 cells/6 uL/well into black wall/clear-bottom 1536-well plates using a Multidrop Combi (Thermo Fisher Scientific, Waltham, MA) dispenser. After the assay plates were incubated at a 37C and 5% CO2 for 4 h, 23 nL of compounds dissolved in DMSO, positive controls or DMSO only was transferred to the assay plate by a Pintool station (Kalypsys, San Diego, CA). The plates were incubated at 37C and 5% CO2 for 16 h. After 1 uL of LiveBLAzerTM B/G FRET substrate was added using a Bioraptr Flying Reagent Dispenser (FRD) workstation (Beckman Coulter, Indianapolis, IN, USA), the plates were incubated at room temperature for 2 h, and fluorescence intensity was measured by an Envision plate reader (PerkinElmer, Shelton, CT).
# On the % scale 0 is the no-effect control and ±100 the full control effect.
row,SMILES,activation
1,CCOC(=O)Cl,inactive: 2.42%
2,ClP(Cl)c1ccccc1,inactive: 0.606%
3,O=[P+](Oc1ccccc1)Oc1ccccc1,inactive: 0.224%
4,CCNC(C)Cc1ccc2c(c1)OCO2 (stereo not drawn),inactive: -12.4% [at 81.1 µM]
5,O=P(Cl)(Cl)c1ccccc1,inactive: -4.09%
6,CC(C)OP(=S)(OC(C)C)SCCNS(=O)(=O)c1ccccc1,inactive: -17%
7,O=P(Cl)(Oc1ccccc1)Oc1ccccc1,inactive: 0.203%
8,CCOP(=S)(CC)Sc1ccccc1 (stereo not drawn),inactive: 1.35%
9,NC(=O)Nc1ccc([As](=O)(O)O)cc1,inactive: 5.69% and inactive: 2.18%
10,CN(N=O)C(=N)N[N+](=O)[O-],inactive: -4.42%
11,CN(C(=O)Cc1ccc(Cl)c(Cl)c1)[C@H]1CC[C@@]2(CCCO2)C[C@@H]1N1CCCC1,inactive: 0%
12,CCCCC(CC)CO[P+](=O)OCC(CC)CCCC (stereo not drawn),inactive: -4.17%
13,O=[p+]1oc2ccccc2c2ccccc21 (stereo not drawn),inactive: -6.09%
14,CN(C(=O)Cc1cccc2occc12)[C@H]1CC[C@@]2(CCCO2)C[C@@H]1N1CCCC1,inactive: 5.25%
15,O=[As]c1ccccc1 (stereo not drawn),inactive: -0.784%
16,CCCCO[P+](=O)OCCCC,inactive: 1.47%
17,COP(=S)(Cl)OC,inactive: 1.15% [at 81.1 µM]
18,COC(=O)Cl,inactive: -2.24%
